Test results taken from US8802673B2, “Heterocyclic amine derivatives” (Hoffmann-La Roche Inc, priority 2011, dated 2014).

Sequences of proteins named here, by UniProt entry; tags and fusion partners are left off.
UniProt Q923Y8, whole entry: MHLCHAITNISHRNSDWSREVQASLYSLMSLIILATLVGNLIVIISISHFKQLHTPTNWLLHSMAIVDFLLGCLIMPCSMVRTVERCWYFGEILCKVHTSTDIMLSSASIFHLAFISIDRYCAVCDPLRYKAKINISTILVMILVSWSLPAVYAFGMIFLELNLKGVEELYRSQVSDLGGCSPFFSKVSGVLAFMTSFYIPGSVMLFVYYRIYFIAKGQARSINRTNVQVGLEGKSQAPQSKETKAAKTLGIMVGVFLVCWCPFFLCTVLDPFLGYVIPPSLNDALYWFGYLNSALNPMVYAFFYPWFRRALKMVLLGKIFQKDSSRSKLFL
UniProt Q923Y9, whole entry: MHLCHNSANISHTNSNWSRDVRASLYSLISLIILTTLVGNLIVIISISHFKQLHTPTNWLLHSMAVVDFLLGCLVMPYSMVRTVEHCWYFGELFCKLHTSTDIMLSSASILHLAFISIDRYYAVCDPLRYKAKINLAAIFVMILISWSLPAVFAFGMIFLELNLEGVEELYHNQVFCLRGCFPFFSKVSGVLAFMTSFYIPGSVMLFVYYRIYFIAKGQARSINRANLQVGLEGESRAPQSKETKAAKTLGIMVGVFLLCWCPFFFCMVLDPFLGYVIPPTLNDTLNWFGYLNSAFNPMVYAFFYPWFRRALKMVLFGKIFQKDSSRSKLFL

Columns and labels:
[1] = molecular target: mouse TAAR1 (Mus musculus (Mouse), UniProt Q923Y8); assay: Radioligand binding assay on mouse TAAR1; conditions: mouse TAAR1 (first value of the cell), HEK-293 membranes; read-out: Ki (μM) mouse/rat
Description: (§1) Construction of TAAR Expression Plasmids and Stably Transfected Cell Lines
(§2) For the construction of expression plasmids the coding sequences of human, rat and mouse TAAR 1 were amplified from genomic DNA essentially as described by Lindemann et al.. The Expand High Fidelity PCR System (Roche Diagnostics) was used with 1.5 mM Mg^2+ and purified PCR products were cloned into pCR2.1-TOPO cloning vector (Invitrogen) following the instructions of the manufacturer. PCR products were subcloned into the pIRESneo2 vector (BD Clontech, Palo Alto, Calif.), and expression vectors were sequence verified before introduction in cell lines.
(§3) HEK293 cells (ATCC #CRL-1573) were cultured essentially as described by Lindemann et al. (2005). For the generation of stably transfected cell lines HEK293 cells were transfected with the pIRESneo2 expression plasmids containing the TAAR coding sequences (described above) with Lipofectamine 2000 (Invitrogen) according to the instructions of the manufacturer, and 24 hrs post transfection the culture medium was supplemented with 1 mg/ml G418 (Sigma, Buchs, Switzerland). After a culture period of about 10 d clones were isolated, expanded and tested for responsiveness to trace amines (all compounds purchased from Sigma) with the cAMP Biotrak Enzyme immunoassay (EIA) System (Amersham) following the non-acetylation EIA procedure provided by the manufacturer.
Radioligand Binding Assay on Mouse TAAR1
Membrane Preparation and Radioligand Binding.
HEK-293 cells stably expressing mouse TAAR1 were maintained at 37° C. and 5% CO2 in DMEM high glucose medium, containing fetal calf serum (10%, heat inactivated for 30 min at 56° C.), penicillin/streptomycin (1%), and 375 μg/ml geneticin (Gibco). Cells were released from culture flasks using trypsin/EDTA, harvested, washed twice with ice-cold PBS (without Ca^2+ and Mg^2+), pelleted at 1,000 rpm for 5 min at 4° C., frozen and stored at −80° C. Frozen pellets were suspended in 20 ml HEPES-NaOH (20 mM, pH 7.4) containing 10 mM EDTA and homogenized with a Polytron (PT 6000, Kinematica) at 14,000 rpm for 20 s. The homogenate was centrifuged at 48,000×g for 30 min at 4° C. Subsequently, the supernatant was removed and discarded, and the pellet resuspended in 20 ml HEPES-NaOH (20 mM, pH 7.4) containing 0.1 mM EDTA using the Polytron (20 s at 14,000 rpm). This procedure was repeated and the final pellet resuspended in HEPES-NaOH containing 0.1 mM EDTA and homogenized using the Polytron. Typically, aliquots of 2 ml membrane portions were stored at −80° C. With each new membrane batch the dissociation constant (Kd) was determined via a saturation curve. The TAAR1 radioligand ^3[H]-(S)-4-[(ethyl-phenyl-amino)-methyl]-4,5-dihydro-oxazol-2-ylamine (described in WO 2008/098857) was used at a concentration equal to the calculated Kd value, that was usually around 0.7 nM, resulting in the binding of approximately 0.5% of the radioligand and a specific binding representing approximately 70% of the total binding. Nonspecific binding was defined as the amount of ^3[H]-(S)-4-[(ethylphenyl-amino)-methyl]-4,5-dihydro-oxazol-2-ylamine bound in the presence of 10 μM unlabeled ligand. All compounds were tested at a broad range of concentrations (10 pM to 10 μM) in duplicates. […] The 96 deep well plates were incubated for 1 hr at 4° C. Incubations were terminated by rapid filtration through Unifilter-96 plates (Packard Instrument Company) and glass filters GF/C (Perkin Elmer) presoaked for 1 hr in polyethylenimine (0.3%) and washed 3 times with 1 ml of cold binding buffer. After addition of 45 μl of Microscint 40 (PerkinElmer) the Unifilter-96 plate was sealed and after 1 hr the ratioactivity counted using a TopCount Microplate Scintillation Counter (Packard Instrument Company).

[2] = molecular target: rat TAAR1 (Rattus norvegicus (Rat), UniProt Q923Y9); assay: Radioligand binding assay on rat TAAR1; conditions: rat TAAR1 (second value of the cell), HEK-293 membranes; read-out: Ki (μM) mouse/rat
Description: as §1, §2, §3
Radioligand Binding Assay on Rat TAAR1
Membrane Preparation and Radioligand Binding
HEK-293 cells stably expressing rat TAAR1 were maintained at 37° C. and 5% CO2 in DMEM high glucose medium, containing fetal calf serum (10%, heat inactivated for 30 min at 56° C.), penicillin/streptomycin (1%), and 375 μg/ml geneticin (Gibco). […] With each new membrane batch the dissociation constant (Kd) was determined via a saturation curve. […] After addition of 45 μl of Microscint 40 (PerkinElmer) the Unifilter-96 plate was sealed and after 1 hr the ratioactivity counted using a TopCount Microplate Scintillation Counter (Packard Instrument Company).

| Compound | Ki [1] | Ki [2] |
| --- | --- | --- |
| Cc1cc([C@@H]2CNCCO2)ccc1Nc1ncc(C2CC2)cn1 [Example 110, (5-Cyclopropyl-pyrimidin-2-yl)-((R)-2-methyl-4-morpholin-2-yl-phenyl)-amine] | 0.0026 µM |  |
| Clc1cc([C@H]2CNCCO2)ccc1Nc1ncc(C2CC2)cn1 [Example 171, (S)—N-(2-Chloro-4-(morpholin-2-yl)phenyl)-5-cyclopropylpyrimidin-2-amine] | 0.0008 µM |  |
| Fc1cc([C@H]2CNCCO2)ccc1Nc1ncc(Br)cn1 [Example 127, (5-Bromo-pyrimidin-2-yl)-((S)-2-fluoro-4-morpholin-2-yl-phenyl)-amine] | 0.003 µM |  |
| Fc1cc([C@@H]2CNCCO2)ccc1Nc1ncc(C2CC2)cn1 [Example 118, (5-Cyclopropyl-pyrimidin-2-yl)-((R)-2-fluoro-4-morpholin-2-yl-phenyl)-amine] | 0.0038 µM |  |
| Fc1cc([C@@H]2CNCCO2)ccc1Nc1ncc(Br)cn1 [Example 126, (5-Bromo-pyrimidin-2-yl)-((R)-2-fluoro-4-morpholin-2-yl-phenyl)-amine] | 0.004 µM |  |
| Clc1cc(C2CNCCO2)ccc1Nc1ncc(C2CC2)cn1 (racemic) [Example 149, (RS)—N-(2-Chloro-4-(morpholin-2-yl)phenyl)-5-cyclopropylpyrimidin-2-amine] |  | 0.0014 µM |
| Brc1ccc(Nc2ccc([C@@H]3CNCCO3)cn2)nc1 [Example 108, (R)-5-Bromo-N-(5-(morpholin-2-yl)pyridin-2-yl)pyridin-2-amine] | 0.0122 µM |  |
| Brc1cnc(Nc2ccc([C@@H]3CNCCO3)cc2)nc1 [Example 94, (5-Bromo-pyrimidin-2-yl)-((R)-4-morpholin-2-yl-phenyl)-amine] | 0.0035 µM |  |
| Cc1cc([C@H]2CNCCO2)ccc1Nc1ncc(C2CC2)cn1 [Example 111, (5-Cyclopropyl-pyrimidin-2-yl)-((S)-2-methyl-4-morpholin-2-yl-phenyl)-amine] | 0.0044 µM |  |
| FC(F)(F)COc1cnc(Nc2ccc([C@@H]3CNCCO3)cc2Cl)nc1 [Example 184, ((R)-2-Chloro-4-morpholin-2-yl-phenyl)-[5-(2,2,2-trifluoro-ethoxy)-pyrimidin-2-yl]-amine] | 0.002 µM | 0.002 µM |
| Clc1cc([C@@H]2CNCCO2)ccc1Nc1ncc(C2CC2)cn1 [Example 170, (R)—N-(2-Chloro-4-(morpholin-2-yl)phenyl)-5-cyclopropylpyrimidin-2-amine] | 0.0016 µM | 0.0012 µM |
| Fc1cc(C2CNCCO2)ccc1Nc1ccc(Cl)cn1 (racemic) [Example 99, (RS)-5-Chloro-N-(2-fluoro-4-(morpholin-2-yl)phenyl)pyridin-2-amine] | 0.0008 µM |  |
| Fc1cc([C@H]2CNCCO2)ccc1Nc1ncc(C2CC2)cn1 [Example 119, (5-Cyclopropyl-pyrimidin-2-yl)-((S)-2-fluoro-4-morpholin-2-yl-phenyl)-amine] | 0.0025 µM |  |
